Legend:
[1] = molecular target: Bifunctional epoxide hydrolase 2 (Homo sapiens, UniProt P34913)
[2] = molecular target: Bifunctional epoxide hydrolase 2 (Mus musculus, UniProt P34914); test: Inhibition of mouse soluble epoxide hydrolase by spectrometric based assay

By UniProt entry, the sequences of proteins in these tests, tags left out. Where a name states a change or a piece, a line headed by the entry shows the natural chain unless it says otherwise.
UniProt P34913, whole entry: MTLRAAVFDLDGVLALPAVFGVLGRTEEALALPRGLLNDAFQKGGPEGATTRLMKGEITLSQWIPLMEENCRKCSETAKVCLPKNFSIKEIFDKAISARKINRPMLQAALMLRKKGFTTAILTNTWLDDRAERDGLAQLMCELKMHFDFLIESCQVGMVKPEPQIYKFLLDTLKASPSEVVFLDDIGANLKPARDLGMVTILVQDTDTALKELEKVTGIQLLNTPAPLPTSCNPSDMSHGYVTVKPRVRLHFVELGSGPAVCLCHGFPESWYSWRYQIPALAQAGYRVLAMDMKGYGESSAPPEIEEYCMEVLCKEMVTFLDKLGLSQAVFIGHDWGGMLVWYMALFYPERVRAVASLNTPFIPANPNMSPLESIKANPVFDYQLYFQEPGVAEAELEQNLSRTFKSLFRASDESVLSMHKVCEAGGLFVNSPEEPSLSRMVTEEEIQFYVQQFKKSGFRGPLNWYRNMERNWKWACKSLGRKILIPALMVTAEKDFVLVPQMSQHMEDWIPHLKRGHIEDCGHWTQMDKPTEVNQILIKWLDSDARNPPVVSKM
UniProt P34914: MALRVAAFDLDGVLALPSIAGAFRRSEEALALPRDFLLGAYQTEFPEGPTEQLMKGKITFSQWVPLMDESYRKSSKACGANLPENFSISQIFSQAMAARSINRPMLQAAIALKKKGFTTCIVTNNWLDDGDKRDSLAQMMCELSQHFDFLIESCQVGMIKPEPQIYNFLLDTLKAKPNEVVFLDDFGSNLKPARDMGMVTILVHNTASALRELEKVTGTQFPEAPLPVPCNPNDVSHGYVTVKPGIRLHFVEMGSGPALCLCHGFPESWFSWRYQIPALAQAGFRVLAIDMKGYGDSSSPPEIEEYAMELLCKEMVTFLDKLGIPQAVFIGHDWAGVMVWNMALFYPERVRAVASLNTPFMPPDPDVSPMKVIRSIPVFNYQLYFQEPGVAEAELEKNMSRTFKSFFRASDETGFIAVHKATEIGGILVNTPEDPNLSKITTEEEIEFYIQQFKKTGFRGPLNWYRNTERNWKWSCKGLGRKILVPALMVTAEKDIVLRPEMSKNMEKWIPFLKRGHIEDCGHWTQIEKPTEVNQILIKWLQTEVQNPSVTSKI

| SMILES | IC50 [1] | IC50 [2] |
| --- | --- | --- |
| CCCCOC(=O)CCCCCCCCCCCNC(=O)NC12CC3CC(CC(C3)C1)C2 | 0.8 nM |  |
| O=C(NCCCCCCCCCCCC(=O)OCc1cccc2ccccc12)NC12CC3CC(CC(C3)C1)C2 | 2.4 nM |  |
| CC(C)(C)OC(=O)CCCCCCCCCCCNC(=O)NC12CC3CC(CC(C3)C1)C2 | 1.3 nM |  |
| O=C(NCCCCCCCCCCCC(=O)OCc1ccccc1Cl)NC12CC3CC(CC(C3)C1)C2 | 1.7 nM | 50 nM |

From ChEMBL document CHEMBL1144497 (Bioorg Med Chem, 2007)
